The source of these data is BindingDB's records for doi:10.1016/j.ejmech.2018.01.067 (Hefei University of Technology, 2018).

Protein sequences, listed by entry. Tags and fused reporters are not part of them. Residues count along the entry.
UniProt P08709, 61-212 limits assumed: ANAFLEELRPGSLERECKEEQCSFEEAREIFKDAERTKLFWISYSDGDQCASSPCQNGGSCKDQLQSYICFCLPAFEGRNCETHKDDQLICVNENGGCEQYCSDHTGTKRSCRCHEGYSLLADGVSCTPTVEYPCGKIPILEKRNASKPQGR
UniProt P08709, 213-466 limits assumed: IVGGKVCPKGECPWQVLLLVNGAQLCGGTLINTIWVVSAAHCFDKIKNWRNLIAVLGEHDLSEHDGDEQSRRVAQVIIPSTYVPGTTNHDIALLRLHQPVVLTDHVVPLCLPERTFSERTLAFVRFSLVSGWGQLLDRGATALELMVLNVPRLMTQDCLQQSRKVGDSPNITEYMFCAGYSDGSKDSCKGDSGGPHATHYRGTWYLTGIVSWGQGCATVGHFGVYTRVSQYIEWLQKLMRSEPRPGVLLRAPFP
UniProt P13726, 33-295 limits assumed: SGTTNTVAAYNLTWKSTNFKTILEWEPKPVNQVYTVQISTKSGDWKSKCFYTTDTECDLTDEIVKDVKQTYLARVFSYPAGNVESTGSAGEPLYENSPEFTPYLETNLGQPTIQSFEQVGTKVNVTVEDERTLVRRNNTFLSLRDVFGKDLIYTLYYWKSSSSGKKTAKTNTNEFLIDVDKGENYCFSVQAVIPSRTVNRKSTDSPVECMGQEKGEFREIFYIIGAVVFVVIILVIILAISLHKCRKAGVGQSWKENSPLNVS

The experiment has as its target Coagulation factor VII/Tissue factor (Homo sapiens, UniProt P08709+P13726).

Molecule `CC(C)Nc1ccc(-c2cccc(N)c2)c(CC(=O)NCc2ccc(C(=N)N)cc2)c1F` [2-[3-Amino-3-fluoro-4-(isopropylamino)-1,1-biphenyl-2-yl]-N-{4-[amino(imino)methyl]benzyl}acetamide] gave an IC50 of 0.34 µM.

What is called IC50 is the midpoint of a concentration-inhibition curve.
